Melting point values, as collected for the OPERA models

Values as listed in the OPERA 2.9 repository of K. Mansouri.

Melting points are in °C. Cells with "n/a" have no entry in this list.

structure (SMILES)	name	melting point (°C)
O[C@H]1CO[C@H]2OCC[C@H]21	(3R,3aS,6aR)-Hexahydrofuro[2,3-b]furan-3-ol	-23.98
O=C1C=CC(=C2NN=CO2)C=C1	4-(1,3,4-oxadiazol-2-yl)phenol	211
CN(C)S(=O)(=O)c1cccc(N)c1	3-amino-n,n-dimethylbenzenesulfonamide	126
CN(C)C(=O)Nc1ccc(Cc2ccc(NC(=O)N(C)C)cc2)cc1	Urea, N,N''-(methylenedi-4,1-phenylene)bis[N',N'-dimethyl-	217
O=C(O)c1cccc(OCc2ccc(F)cc2)c1	3-(4-Fluoro-benzyloxy)-benzoic acid	144
CCCCCCCC/C=C\CCCCCCCCNC(=O)CCCCCCCCCCCCCCC	N-Oleylpalmitic acid amide	65
O=C1C(c2nc3ccccc3cc2O)=C(O)c2ccccc21	1H-Inden-1-one, 3-hydroxy-2-(3-hydroxy-2-quinolinyl)-	267.6
CN(C)c1ccc([N+](=O)[O-])cc1C(=O)O	2-(dimethylamino)-5-nitrobenzoic acid	150
Cc1nn(-c2ccccc2)c(C)c1NC(=O)CCl	2-chloro-N-(3,5-dimethyl-1-phenyl-1H-pyrazol-4-yl)acetamide	150
Cn1nc(-c2cc(OCC(=O)O)c(Cl)cc2F)c(Cl)c1OC(F)F	Pyraflufen	126
Cc1cc(C)c(O)c(C(c2cc(C)cc(C)c2O)C(C)C)c1	Phenol, 2,2'-(2-methylpropylidene)bis[4,6-dimethyl-	162
COc1ccc2c(c1)CC[C@@H]1[C@@H]2CC[C@]2(C)[C@@H](OC(C)=O)CC[C@@]12C	n/a	105
CCN(CC)S(=O)(=O)c1ccc(N2CCOCC2)c(N)c1	3-Amino-N,N-diethyl-4-(morpholin-4-yl)benzene-1-sulfonamide	95
N#Cc1ccccc1CS(=O)(=O)Cl	(2-Cyanophenyl)methanesulfonyl chloride	86
O=C(O)c1ccc(SC(F)F)cc1	4-[(Difluoromethyl)sulfanyl]benzoic acid	155
O=Cc1cn(-c2ccccc2)nc1-c1ccc(Cl)cc1	3-(4-Chlorophenyl)-1-phenyl-1H-pyrazole-4-carbaldehyde	126
O=C1C=CC(=O)N1c1cccc([N+](=O)[O-])c1	1-(3-Nitrophenyl)-1H-pyrrole-2,5-dione	130
COc1cc(NC(=O)Cc2cccs2)c(C(=O)O)cc1OC	4,5-Dimethoxy-2-[2-(thiophen-2-yl)acetamido]benzoic acid	196
Cn1ccnc1C(=O)c1ccco1	(Furan-2-yl)(1-methyl-1H-imidazol-2-yl)methanone	35
O=C(O)c1nc(-c2ccccc2)n(-c2ccccc2)n1	1,5-diphenyl-1H-1,2,4-triazole-3-carboxylic acid	179
CCN(CC)S(=O)(=O)c1ccc(NC(=O)CCl)cc1	2-Chloro-N-[4-(diethylsulfamoyl)phenyl]acetamide	104
CCCCc1ccc(-c2ccc(-c3ccc(CC)cc3)c(F)c2F)cc1	n/a	99
Cc1cc(N)n(-c2cccc(C(F)(F)F)c2)n1	3-Methyl-1-[3-(trifluoromethyl)phenyl]-1H-pyrazol-5-amine	90
CC(=O)c1cccc(NC(=O)CCl)c1	N-(3-Acetylphenyl)-2-chloroacetamide	113
CCCCCCCCCc1cc(C(C)(C)C)c(O)c(C(C)(C)C)c1	Phenol, 2,6-bis(1,1-dimethylethyl)-4-nonyl-	-47.4
O=Cc1cccc(C(F)(F)F)c1Cl	2-Chloro-3-(trifluoromethyl)benzaldehyde	43.5
Fc1cc2cccnc2cc1F	6,7-Difluoroquinoline	110
Cc1cccc(CC(N)=S)c1	(3-Methylphenyl)ethanethioamide	76
COc1ccc(NC(=O)C(Cl)c2ccccc2)cc1 (stereo not drawn)	2-Chloro-N-(4-methoxyphenyl)-2-phenylacetamide	154
CC1CCC2(CC1)NC(=O)N(N)C2=O (stereo not drawn)	3-amino-8-methyl-1,3-diazaspiro[4.5]decane-2,4-dione	119
O=C(O)c1cc(Cl)c[nH]1	4-chloro-1H-pyrrole-2-carboxylic Acid	183
NS(=O)(=O)c1cc(C(=O)O)ccc1F	4-fluoro-3-sulfamoylbenzoic acid	237
CC(=O)N1CCCc2cc(S(=O)(=O)Cl)ccc21	1-Acetyl-1,2,3,4-tetrahydroquinoline-6-sulfonyl chloride	128
Cc1c(C(=O)O)oc2c1ccc1ccccc12	3-Methyl-naphtho[1,2-b]furan-2-carboxylic acid	207
CCOC(=O)OCCOc1cc(O)c2c(c1N)C(=O)c1ccccc1C2=O	n/a	175
N.N.O=C(O)c1ccccc1C(=O)O	Benzene-1,2-dicarboxylic acid--ammonia (1/2)	203.8
C=CCCc1ccc(-c2ccc(-c3ccc(CC)cc3)cc2F)cc1	n/a	60.5
CCc1cn([C@H]2C[C@H](OC(=O)c3ccc(Cl)cc3)[C@@H](COC(=O)c3ccc(Cl)cc3)O2)c(=O)[nH]c1=O	3',5'-Bis-O-(4-chlorobenzoyl)-2'-deoxy-5-ethyluridine	194.8
COC(=O)C1(C(=O)OC)CC1	1,1-Cyclopropanedicarboxylic acid, dimethyl ester	1.62
CCC(COC(=O)CC(C)CC(C)(C)C)(COC(=O)CC(C)CC(C)(C)C)COC(=O)CC(C)CC(C)(C)C (stereo not drawn)	Trimethylolpropane tris(3,5,5-trimethylhexanoate)	-51
CCCCCCC(C)OC(=O)CCCCC(=O)OC(C)CCCCCC (stereo not drawn)	Hexanedioic acid, bis(1-methylheptyl) ester	-32.3
CC1=CCC(O)(C(C)C)CC1 (stereo not drawn)	4-Methyl-1-(propan-2-yl)cyclohex-3-en-1-ol	-25.65
O=C(N=NC(=O)OCCCC(F)(F)C(F)(F)C(F)(F)C(F)(F)C(F)(F)C(F)(F)F)OCCCC(F)(F)C(F)(F)C(F)(F)C(F)(F)C(F)(F)C(F)(F)F	n/a	58
CCCCCC1CCC(C2CC=C(c3ccc(OCC)c(F)c3F)CC2)CC1 (stereo not drawn)	n/a	57
CCCn1c(=O)[nH]c2ccccc21	1-Propyl-1,3-dihydro-2H-benzimidazol-2-one	98
O=C(CCl)NC12CC3CC(CC(C3)C1)C2	Acetamide, N-(1-adamantyl)-2-chloro-	111
CO[Si](C)(C)CCl	Dimethyl(chloromethyl)methoxysilane	-100.2
O=C(O)c1ccccc1C(=O)N1CCCC1	2-(Pyrrolidine-1-carbonyl)benzoic acid	132
Nc1cccnc1Oc1ccccc1	2-Phenoxypyridin-3-amine	108
CNC(C)C	N-Methylisopropylamine	-78.12
CCn1c(-c2cccs2)n[nH]c1=S	4-Ethyl-5-thiophen-2-yl-4H-[1,2,4]triazole-3-thiol	104
O=C(O)CCc1nc2ccccc2s1	3-(1,3-benzothiazol-2-yl)propanoic acid	98
COc1ccc2cc(C(=O)CBr)ccc2c1	2-Bromoacetyl-6-methoxynaphthalene	109

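OPERA's authors assembled the values from existing databases and did not measure them anew. The files give a single number for a compound and property, which may rest on several reports. Conditions of the individual experiments are not part of the data. A value may pool stereoisomers or salt forms, and the file does not say which form was measured. Some upstream entries may be estimates or bounds without being marked so.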